## AlphaSeq binding of Ab-14 heavy chain variants to a spike HR2 peptide

Source: Li et al. 2023 (doi:10.1038/s41467-023-39022-2), MIT Lincoln Laboratory and A-Alpha Bio; data file from the FLAb repository.

Target: peptide PDVDLGDISGINAS, taken from heptad repeat 2 (HR2) of SARS-CoV-2 spike.

Each scFv is VH, a (GGGGS)3 linker, VL, as in the parent Ab-14, and differs from it in the CDRs of the heavy chain only.
VH: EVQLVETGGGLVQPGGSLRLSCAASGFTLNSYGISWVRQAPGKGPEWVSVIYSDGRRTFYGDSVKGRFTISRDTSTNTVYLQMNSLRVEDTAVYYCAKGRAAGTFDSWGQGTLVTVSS
VL: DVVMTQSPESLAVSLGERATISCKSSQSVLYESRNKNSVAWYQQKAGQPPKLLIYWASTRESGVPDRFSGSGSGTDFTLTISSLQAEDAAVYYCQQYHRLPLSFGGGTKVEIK

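The parent was found by panning a naive human phage display library on the peptide. The variants were designed computationally from a first round of random CDR variants and then made and measured. Group labels follow the data file (En: ensemble of fine-tuned language models; HC: hill climbing; Gen: genetic algorithm; Gibbs: Gibbs sampling; a sequence that several methods proposed may carry one label only). The scFvs were displayed on barcoded MATa yeast, the peptide on MATalpha yeast. After mating in shaken culture at 30 °C for 16 h, diploids were selected and their barcode pairs sequenced. The ratio of observed to expected reads was calibrated, replicate by replicate, on BCL2-family standards whose Kd was known from biolayer interferometry. Mating was done six times.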

The parent's heavy chain CDRs are GFTLNSYGIS, VIYSDGRRTFYGDSVK, GRAAGTFDS; each variant's own CDRs replace them letter for letter. This list holds designs with more than six substitutions. Affinities are written as log10 Kd with Kd in nM; a lower number is a better binder. "nd" means that the variant was in the library but no mating with the target was seen in that replicate; the authors take this as a sign of poor binding, and no number exists. Background: pairings of all heavy chain designs with three empty control strains gave a value in 1% of cases (median 2.08, 5th percentile 0.84). Values in that range, when seen in few replicates, are hard to tell from nonspecific mating. The authors' rule: three or more of the six replicates give a measured affinity, fewer mean a poor binder. A sequence measured in both rounds can read differently, since the two assays cover different ranges.

With GFDLNEYGIS | VIYADGMRTSYTDSVK | GNVAGTFDV [En_Gen] the result was -0.54, -0.74, -0.50, -0.69, -0.32, 0.01. With GFEIQDYGIS | VIYADGLRTSYSDKFK | GIIAGTFNS [En_Gibbs] the result was 0.42, -0.13, 0.24, -0.52, -0.04, 0.23. For GFDLNEYGIS | VIYADGKRTFYSDSVK | GNQAGTFDS [En_HC], the assay gave -0.34, -0.60, -0.66, -0.83, -0.77, -0.43. With GFDLNEYGIS | VIYADGRRTSYADSVK | GNLAGTFDS [En_HC] the result was -0.22, -0.36, -0.82, -0.52, -0.65, -0.28. For GFDLNEYGIS | VIYADGRRTAYVQSVK | GKNNMVLSV [En_Gibbs], the assay gave nd, nd, nd, nd, nd, nd.

The variant GFDLNEYGIS | VIYADGRRTFYADSVK | GQNAGTFLV [En_HC] showed nd, nd, 0.22, nd, nd, nd. The variant GFDLNEYGIS | VIYADGMRTAYADKVK | GQVAGTFDV [En_Gen] gave -0.94, -1.22, -1.08, -0.98, -1.30, -0.93. For GFDLNEYGVS | VIYADGQRTQYTDKVK | GSESASITN [En_Gibbs], the assay gave nd, nd, nd, nd, nd, 3.66. The variant GFDINEYGIS | VIYADGRRTFYADSVK | GNVGGTFDL [En_HC] showed -0.21, 0.32, -0.22, -0.28, -0.18, 0.15. For GFDLNEYGIS | VIYADGRRTFYSDSVK | GETGGTFDV [En_HC], the assay gave 1.31, 1.84, 1.60, 2.15, nd, 1.50.

The variant GFNLDEYGIS | VIYADGRRTAYADSVK | GEVAGTFDL [En_Gen] showed -0.19, 0.41, -0.12, -0.25, -0.08, -0.23. For GFDLEEYGIS | VIYADGMRTFYTDSVK | GEVAGTFDV [En_HC], the assay gave -0.19, nd, -0.27, -1.19, -0.21, 0.87. For GFDLNEYGIS | VIYADGVRTAYANDVK | GNVAGTFDV [En_Gen], the assay gave -0.14, -0.25, -0.45, -0.59, -0.15, 0.53. For GFDLNEYGIS | VIYADGRRTAYADTVK | GENAGTFDV [En_Gen], the assay gave 0.61, 1.05, -0.31, -0.40, -0.05, 0.21. For GFQLDEYGIS | VIYADGKRQYYAQKVK | GYNSTDMTV [En_Gibbs], the assay gave nd, nd, nd, nd, nd, nd.

The variant GFDLNEYGIS | VIYADGKRTAYVDSVK | GTNAGTFDV [En_Gen] gave nd, nd, nd, nd, nd, nd. For GFDLNEYGIS | VIYADGQRTAYADSVK | GTNAGTFDL [En_Gen], the assay gave 0.28, -0.23, -0.26, -0.39, -0.17, -0.11. With GFDLNEYGIS | VIYADGQRTAYADSVK | GANAGTFDL [En_Gen] the result was -0.09, -0.35, -0.19, -0.40, -0.60, -0.37. With GFDLNEYGIS | VIYADGMRTAYADSVK | GQTAGTFDQ [En_Gen] the result was 0.40, nd, nd, 0.37, nd, 0.33. For GFDLNEYGIS | VIYADGVRTAYVDSVK | GNVAGTFDQ [En_Gen], the assay gave -0.17, -0.10, -0.46, -0.08, -0.25, -0.27.

With GFDLNEYGIS | VIYADGKRTFYTDDVK | GEVAGTFDL [En_HC] the result was -0.41, -0.37, -0.28, -0.37, -0.44, -0.34. The variant GFGLDEYGIS | VIYADGMRSAYANSVK | GHHAGGIVW [En_Gibbs] gave nd, nd, 2.14, nd, nd, nd. With GFDLNEYGIS | VIYADGRRTFYADSVK | GQIAGTFDV [En_HC] the result was 0.20, -0.24, -0.81, -0.79, -0.64, nd. With GFDLNEYGIS | VIYADGVRTAYADSVK | GNTAGTFDV [En_Gen] the result was -0.22, -0.37, -0.65, -0.75, -0.41, -0.28. The variant GFQLDEFGIS | VIYADGKRSSYVDDVK | GETTGIFSV [En_Gibbs] showed nd, nd, nd, nd, nd, nd.

The variant GFDLNEYGIS | VIYADGVRTAYSDSVK | GNTAGTFDV [En_Gen] gave -0.04, 0.17, -0.32, -0.72, -0.59, 0.06. With GFNLNEYGIS | VIYADGRRTFYADSVK | GEVAGTFDI [En_HC] the result was -0.47, 0.00, -0.46, -0.57, -0.64, -0.55. For GFNLNEYGIS | VIYADGRRKFYSDSVK | GEAAGTFDV [En_HC], the assay gave 0.35, 0.46, -0.68, -0.76, 0.23, -0.13. With GEDLDEYGIS | VIYADGRRVVYQDQFK | GELAGTVDQ [En_Gibbs] the result was 0.82, 2.53, 0.86, 1.93, 0.47, 1.36. The variant GFDLNEYGIS | VIYADGVRTFYTDSVK | GQLAGTFDS [En_HC] showed 0.30, -0.17, 0.09, 0.01, -0.42, -0.30.

For GIDLEKYGIS | VIYADGMRASYADAVK | GDLSGTFYI [En_Gibbs], the assay gave nd, nd, nd, nd, nd, nd. With GFDLEDYGIS | VIYADGRRTAYIDSVK | GEAAGTFDA [En_HC] the result was -0.61, -0.72, -0.03, -0.59, -0.56, -0.52. The variant GFDLDEYGIS | VIYADGMRTAYADSVK | GSNAGTFDI [En_Gen] showed 0.27, 0.08, 0.54, 0.10, -0.10, 0.12. With GFDLREYGIS | VIYADGRRVVYNDKVK | GELTGTFDQ [En_Gibbs] the result was nd, nd, nd, nd, nd, nd. The variant GFDLNEYGIS | VIYADGVRTAYVDSVK | GNVAGTFDM [En_Gen] gave -0.03, -0.29, 0.10, -0.61, -0.49, 0.33.

The variant GFDLNEYGIS | VIYADGQRTAYADSVK | GKAAGTFDT [En_HC] gave -0.15, -0.72, -1.16, -0.59, 0.01, -0.89. With GFDLEEYGIS | VIYADGRRTFYSDSVK | GEAAGTFDI [En_HC] the result was -0.14, -0.07, -0.29, -0.59, -0.30, -0.27. The variant GFDLNEYGIS | VIYADGKRKFYADKVK | GENAGTFDV [En_HC] showed -1.20, -1.05, -1.14, -1.66, -1.41, -0.53. The variant GFNLNEYGIS | VIYADGMRTFYTDSVK | GETAGTFII [En_HC] gave nd, nd, nd, nd, nd, nd. For GFNLDEYGIS | VIYADGRRTAYQDSVK | GEGAGTFDF [En_HC], the assay gave 0.80, 1.09, 0.77, 0.68, 0.57, 1.22.

With GFDINEYGIS | VIYADGMRTKYSESVK | GTGDGSFNG [En_Gibbs] the result was nd, nd, nd, nd, nd, nd. With GFDLNEYGIS | VIYADGMRTSYSDSVK | GNVAGTFDV [En_Gen] the result was 1.27, 0.46, 1.28, 1.13, 0.54, 0.88. The variant GFDLNEYGIS | VIYADGMRTAYVDSVK | GQNAGTFDI [En_Gen] showed -0.02, -0.19, -0.28, -0.18, -0.25, 0.18. The variant GFDLNEYGIS | VIYADGKRTFYADSVK | GSNAGTFDV [En_Gen] showed -0.47, -0.43, -0.54, -0.81, -0.52, -0.16. The variant GYDLNEYGIS | VIYADGRRAATINQVK | GSNSFTFDL [En_Gibbs] showed nd, nd, nd, nd, nd, nd.

With GFDLNEYGIS | VIYADGRRTAYIDSVK | GHNAGTFDS [En_HC] the result was 0.13, -0.26, -0.60, -0.76, -0.39, -0.37. For GFDLDEYGIS | VIYADGMRTAYSDNVK | GNVAGTFDV [En_Gen], the assay gave -0.06, -0.40, -0.62, -0.62, -0.65, -0.52. The variant GFNLDEYGIS | VIYADGRRTFYQDSVK | GEVAGTFDV [En_HC] gave -0.54, -0.24, -0.69, -1.68, -0.81, -0.65. The variant GFDLDEYGIS | VIYADGMRTAYANDVK | GEVAGTFDL [En_Gen] gave -0.38, -0.42, -1.01, 0.08, -0.91, -0.24. The variant GADINEYGIS | VIYADGRSTYYANSFK | GHNAGTFNS [En_Gibbs] showed nd, nd, nd, nd, nd, nd.

With GFDLNEYGIS | VIYADGRRTFYADSVK | GELAGTFDL [En_HC] the result was 0.76, 0.13, 0.18, -0.11, 0.13, -0.11.